Results as given in patent publication US6521619B2, “Aryl phenylcyclopropyl sulfide derivatives and their use as cell adhesion inhibiting anti-inflammatory and immune suppressive agents” (Icos Corporation, priority 2000, dated 2003).
Read-outs that look alike come from different tables or passages of the source.

The chains behind the UniProt entries cited, without tags or fusion partners. Residues count along the entry.
UniProt P20701, 26-1170: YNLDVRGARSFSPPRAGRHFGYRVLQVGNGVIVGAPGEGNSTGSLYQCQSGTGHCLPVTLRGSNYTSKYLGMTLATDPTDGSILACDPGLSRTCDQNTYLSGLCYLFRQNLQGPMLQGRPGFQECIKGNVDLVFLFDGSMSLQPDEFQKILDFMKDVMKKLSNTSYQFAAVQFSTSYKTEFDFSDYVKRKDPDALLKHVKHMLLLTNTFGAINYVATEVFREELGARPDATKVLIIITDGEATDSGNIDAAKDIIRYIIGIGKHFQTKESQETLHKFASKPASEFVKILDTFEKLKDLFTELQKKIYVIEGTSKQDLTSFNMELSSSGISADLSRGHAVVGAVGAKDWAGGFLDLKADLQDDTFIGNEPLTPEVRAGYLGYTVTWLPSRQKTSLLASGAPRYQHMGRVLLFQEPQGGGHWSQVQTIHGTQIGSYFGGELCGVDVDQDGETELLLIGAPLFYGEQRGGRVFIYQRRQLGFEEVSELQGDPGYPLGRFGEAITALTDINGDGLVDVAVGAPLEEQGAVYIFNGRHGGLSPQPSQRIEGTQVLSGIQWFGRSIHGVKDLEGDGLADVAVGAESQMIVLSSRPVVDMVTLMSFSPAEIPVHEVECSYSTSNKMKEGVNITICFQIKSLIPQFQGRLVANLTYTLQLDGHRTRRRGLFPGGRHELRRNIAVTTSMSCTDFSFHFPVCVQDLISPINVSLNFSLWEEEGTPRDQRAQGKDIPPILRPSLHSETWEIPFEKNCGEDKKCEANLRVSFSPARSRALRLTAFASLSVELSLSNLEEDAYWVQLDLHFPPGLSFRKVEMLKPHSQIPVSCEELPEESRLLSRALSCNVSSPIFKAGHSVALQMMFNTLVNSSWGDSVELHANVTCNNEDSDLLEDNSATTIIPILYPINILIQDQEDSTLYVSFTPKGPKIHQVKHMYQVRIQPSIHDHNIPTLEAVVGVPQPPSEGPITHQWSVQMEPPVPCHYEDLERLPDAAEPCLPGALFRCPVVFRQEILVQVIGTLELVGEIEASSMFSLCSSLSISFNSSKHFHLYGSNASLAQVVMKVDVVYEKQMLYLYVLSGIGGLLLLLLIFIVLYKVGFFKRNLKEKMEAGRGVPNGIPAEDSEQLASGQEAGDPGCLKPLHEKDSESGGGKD

Target: T1, ICAM-1/LFA-1 interaction (recombinant LFA-1, biotinylated recombinant ICAM-1/Ig) (Homo sapiens, UniProt P20701)
T1 construct: Recombinant LFA-1 (100 mL of 0.7 mg/ml, ICOS Corporation) in D-PBS is then added to each well
Test: ICAM-1/LFA-1 Biochemical Interaction Assay (46A)
Type: binding

inhibition at 4 µM (@ 4 μM compound) [%] | SMILES | inhibition at 4 µM [%]
– | O=C(O)CCc1ccccc1Sc1ccc(C2CC2C(=O)NCCCN2CCCC2=O)cc1C(F)(F)F (racemic) [Example 6, (±)-(2-(2-carboxyethyl)phenyl)[2-trifluoromethyl-4-(trans-(2-((3-(1-pyrrolidin-2-onyl)-prop-1-ylamino)carbonyl)cycloprop-1-yl)phenyl]sulfide] | 90
93 | O=C(NCCCN1CCCC1=O)C1CC1c1ccc(Sc2ccccc2N2CCOCC2)c(C(F)(F)F)c1 (racemic) [Example 7, (±)-(2-Morpholin-1-ylphenyl)[2-trifluoromethyl-4-(trans-(2-((3-(1-pyrrolidin-2-onyl)-prop-1-ylamino)carbonyl)cycloprop-1-yl)phenyl]sulfide] | –
